# Measurements reported in ChEMBL document CHEMBL1144712, “Structure-guided design of C2-symmetric HIV-1 protease inhibitors based on a pyrrolidine scaffold” (J Med Chem, 2008).
# Biological target: Protease (Human immunodeficiency virus 1, UniProt Q9YQ12)
# Test: Inhibition of HIV1 recombinant protease expressed in Escherichia coli
row,SMILES,Ki [nM]
1,O=S(=O)(c1ccccc1)N(Cc1ccc(I)cc1)[C@H]1CNC[C@@H]1N(Cc1ccc(I)cc1)S(=O)(=O)c1ccccc1,390
2,Nc1ccc(S(=O)(=O)N(Cc2ccccc2)[C@H]2CNC[C@@H]2N(Cc2ccccc2)S(=O)(=O)c2ccc(N)cc2)cc1,270
